Laboratory results: patent US11492340B2 (priority 2017, dated 2022)

Each compound was assayed against eeAChE inhibited with a VX analogue (EMP) (Electrophorus electricus, UniProt O42275) (assay: Reactivation of EMP-inhibited eeAChE by QMPs, Ellman's assay). Settings: QMP 4 min [sic], pH 8.0, 37° C.

Going from `CCCCN(C)Cc1ncccc1O` to `CCCN(C)Cc1ncccc1O`, the “k, apparent rate constant of first-order or pseudo-first-order AChE reactivation” value (shortened to “k, apparent rate constant”) falls from 0.080 ± 0.003 h⁻¹ to 0.063 ± 0.004 h⁻¹.

First: CCN(C)Cc1ncccc1O
Second: CCN(CC)Cc1ncccc1O [C7, 2-((diethylamino)methyl)pyridin-3-ol]
The “k, apparent rate constant” value of the first is higher: 0.090 ± 0.003 h⁻¹ for the first, 0.056 ± 0.003 h⁻¹ for the second.

`Oc1cccnc1CN1CCCC1` [C8, 2-(pyrrolidin-1-ylmethyl)pyridin-3-ol] was tested, and the “k, apparent rate constant” value was 0.088 ± 0.003 h⁻¹.

Same assay, conditions: pH 8.0, 37° C.

In the case of `CCN(CC)Cc1ncccc1O` [C7, 2-((diethylamino)methyl)pyridin-3-ol], the “reactivation activity/kinetics, in words” value is reported as “slower kinetics”.
